Reference: patent publication US20250361280A1 (Protagonist Therapeutics, Inc., priority 2022, published 2025)
pIC50: −log10 of the molar value.

Key:
[1] = target: T1, ferroportin (Homo sapiens, UniProt Q9NP59); test: T47D internalization assay in presence of mouse serum albumin; assay type: cell-based; design: a human breast carcinoma adherent cell line which endogenously expresses ferroportin; host or cells: T47D; settings: T47D cells, 0.5% mouse serum albumin, 1 hr incubation; for pIC50: Table 1D, read-out: IC50: T47D MSA; for IC50: IC50: T47D MSA (nM, Table 1D)
T1 sequence (Q9NP59 1-571): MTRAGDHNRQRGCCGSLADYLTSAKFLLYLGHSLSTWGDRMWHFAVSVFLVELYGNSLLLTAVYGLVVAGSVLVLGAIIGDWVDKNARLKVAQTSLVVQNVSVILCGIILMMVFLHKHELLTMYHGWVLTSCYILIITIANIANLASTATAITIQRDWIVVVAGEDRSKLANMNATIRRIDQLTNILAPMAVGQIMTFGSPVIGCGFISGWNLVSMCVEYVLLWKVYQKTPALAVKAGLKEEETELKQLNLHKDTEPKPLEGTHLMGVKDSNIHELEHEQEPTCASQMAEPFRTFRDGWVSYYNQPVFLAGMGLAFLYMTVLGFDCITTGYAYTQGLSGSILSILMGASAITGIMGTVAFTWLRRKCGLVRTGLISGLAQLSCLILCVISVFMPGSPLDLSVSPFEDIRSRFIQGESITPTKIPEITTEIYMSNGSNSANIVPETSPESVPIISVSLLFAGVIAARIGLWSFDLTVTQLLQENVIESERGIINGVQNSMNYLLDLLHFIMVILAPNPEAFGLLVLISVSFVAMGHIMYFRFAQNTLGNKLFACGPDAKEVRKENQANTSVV
Method: The potency of the peptides disclosed in causing ferroportin internalization was evaluated in a T47D cell-based assay. […] In this internalization assay, the potency of the test peptides was evaluated in presence of serum albumin which is the main protein component in the blood. T47D cells were maintained in RPMI media (containing required amount of fetal bovine serum) and regularly sub-cultured. In preparation for the assay, the cells were seeded in 96-well plates at a density of 80-100 k cells per well in 100 ul volume and allowed to rest overnight. On the next day, test peptides were first prepared in dilution series (10-point series, starting concentration of ˜5 μM, typically 3-4×fold dilution steps), all with 0.5% mouse serum albumin (MSA purified from mouse serum; Sigma, A3139). The test peptide dilution series were allowed to incubate at room temperature for 30 min. Then the media was aspirated from the 96-well cell plate and test peptide dilution series were added. After 1 hr incubation, the media with test peptides was aspirated out and AF647-conjugated detection peptide was added at fixed concentration of 200 nM. The AF647-conjugated detection peptide was previously verified to bind to ferroportin and cause its internalization. The cells were washed again after a 2 hr incubation in preparation for flow cytometry analysis. The Median Fluorescence Intensity (MFI) of the AF647-positive population was measured (after removing dead cells and non-singlets from the analysis). The MFI values were used to generate a dose-response curve and obtain IC50 potencies for the test peptides. The IC50 potencies were calculated by using 4-parameter non-linear fitting function in Graphpad Prism and the results are provided in Table 1C.

[2] = target: T1, ferroportin; test: FPN internalization assay (FPN activity assay), loss of ferroportin-GFP fluorescence; assay type: cell-based
[3] = Table 1D, HEK293 cells stably expressing ferroportin-GFP, compound at least 18 hours, read-out: IC50: FPN

Structure (SMILES) | pIC50 [1] | pIC50 [2, 3] | IC50 [1] [nM] | pIC50 [2]
CC(C)CC(=O)N[C@H]1CCC(=O)NCCOc2ccc(cc2)C[C@@H](C(N)=O)NC(=O)[C@H](CCCCNC(=O)CCOCCOCCOCCOCCNC(=O)CCCc2ccc(I)cc2)NC(=O)[C@@H]2CSSC[C@H](NC1=O)C(=O)N[C@@H](Cc1c[nH]cn1)C(=O)N[C@@H](C(c1ccccc1)c1ccccc1)C(=O)N2 [compound 62] | < 6.30 | 7.52 to 9.00 | – | –
CC(C)CC(=O)N[C@@H](CCC(=O)O)C(=O)N[C@H]1CSSC[C@@H](C(=O)N[C@H](C(=O)N(C)[C@@H](CCCCNC(=O)CCCc2ccc(I)cc2)C(=O)N[C@H](C(=O)N[C@H](CCCCN)C(N)=O)C(c2ccccc2)c2ccccc2)C2CCCCC2)NC(=O)[C@H](C(c2ccccc2)c2ccccc2)NC(=O)[C@H](Cc2c[nH]cn2)NC1=O [compound 63] | 6.30 to 7.00 | 7.00 to 7.52 | – | –
CC(C)CC(=O)N[C@@H](CCC(=O)O)C(=O)N[C@H]1CSSC[C@@H](C(=O)N[C@H](C(=O)N(C)[C@@H](CCCCNC(=O)[C@H](CN)NC(=O)CCCc2ccc(I)cc2)C(=O)N[C@H](C(=O)N[C@H](CCCCN)C(N)=O)C(c2ccccc2)c2ccccc2)C2CCCCC2)NC(=O)[C@H](C(c2ccccc2)c2ccccc2)NC(=O)[C@H](Cc2c[nH]cn2)NC1=O [compound 64] | 6.30 to 7.00 | 7.00 to 7.52 | – | –
COC(=O)CC[C@H](NC(=O)CC(C)C)C(=O)N[C@H](C(=O)N[C@@H](Cc1c[nH]cn1)C(=O)N[C@H](C(=O)N1CCC[C@H]1C(=O)N(C)[C@@H](CCCCNC(=O)C[N+](C)(C)CCNC(=O)C[N+](C)(C)CCNC(=O)CCCc1ccc(I)cc1)C(=O)NCCCCCc1ccccc1)C(c1ccccc1)c1ccccc1)[C@@H](C)O [compound 65] | 7.00 to 8.00 | 6.30 to 7.00 | – | –
CC(C)CC(=O)N[C@@H](CCC(=O)O)C(=O)N[C@H](C(=O)N[C@@H](Cc1c[nH]cn1)C(=O)N[C@H](C(=O)N1CCC[C@H]1C(=O)N(C)[C@@H](CCCCNC(=O)C[N+](C)(C)CCNC(=O)C[N+](C)(C)CCNC(=O)CCCc1ccc(I)cc1)C(=O)NCCCCCc1ccccc1)C(c1ccccc1)c1ccccc1)[C@@H](C)O [compound 66] | 7.00 to 8.00 | 7.00 to 7.52 | – | –
CC(C)CC(=O)N[C@@H](CCC(=O)O)C(=O)N[C@H](C(=O)N[C@@H](Cc1c[nH]cn1)C(=O)N[C@H](C(=O)N1CCC[C@H]1C(=O)N[C@@H](CCCCNC(=O)C[N+](C)(C)CCNC(=O)C[N+](C)(C)CCNC(=O)CCCc1ccc(I)cc1)C(=O)NCCCCCc1ccccc1)C(c1ccccc1)c1ccccc1)[C@@H](C)O [compound 67] | 7.00 to 8.00 | 7.00 to 7.52 | – | –
CCCCCCCCCCCCCCCC(=O)NCC[N+](C)(C)CC(=O)NCC[N+](C)(C)CC(=O)NCCCC[C@@H](C(=O)NCCCCCc1ccccc1)N(C)C(=O)[C@@H]1CCCN1C(=O)[C@@H](NC(=O)[C@H](Cc1c[nH]cn1)NC(=O)[C@@H](NC(=O)[C@H](CCC(=O)OC)NC(=O)CC(C)C)[C@@H](C)O)C(c1ccccc1)c1ccccc1 [compound 68] | 8.00 to 10.00 | 7.00 to 7.52 | – | –
CCCCCCCCCCCCCCCC(=O)NCC[N+](C)(C)CC(=O)NCC[N+](C)(C)CC(=O)NCCCC[C@@H](C(=O)NCCCCCc1ccccc1)N(C)C(=O)[C@@H]1CCCN1C(=O)[C@@H](NC(=O)[C@H](Cc1c[nH]cn1)NC(=O)[C@@H](NC(=O)[C@H](CCC(=O)O)NC(=O)CC(C)C)[C@@H](C)O)C(c1ccccc1)c1ccccc1 [compound 69] | 7.00 to 8.00 | 7.52 to 9.00 | – | –
CCCCCCCCCCCCCCCC(=O)NCC[N+](C)(C)CC(=O)NCC[N+](C)(C)CC(=O)NCCCC[C@H](NC(=O)[C@@H]1CCCN1C(=O)[C@@H](NC(=O)[C@H](Cc1c[nH]cn1)NC(=O)[C@@H](NC(=O)[C@H](CCC(=O)OC)NC(=O)CC(C)C)[C@@H](C)O)C(c1ccccc1)c1ccccc1)C(=O)NCCCCCc1ccccc1 [compound 70] | 8.00 to 10.00 | 7.52 to 9.00 | – | –
CCCCCCCCCCCCCCCC(=O)NCC[N+](C)(C)CC(=O)NCC[N+](C)(C)CC(=O)NCCCC[C@H](NC(=O)[C@@H]1CCCN1C(=O)[C@@H](NC(=O)[C@H](Cc1c[nH]cn1)NC(=O)[C@@H](NC(=O)[C@H](CCC(=O)O)NC(=O)CC(C)C)[C@@H](C)O)C(c1ccccc1)c1ccccc1)C(=O)NCCCCCc1ccccc1 [compound 71] | 7.00 to 8.00 | 7.52 to 9.00 | – | –
CCCCCCCCCCCCCCCC(=O)NCC[N+](C)(C)CC(=O)NCCOCCOCC(=O)NCCOCCOCC(=O)NCCCC[C@H](NC(=O)[C@@H]1CCCN1C(=O)[C@@H](NC(=O)[C@H](Cc1c[nH]cn1)NC(=O)[C@@H](NC(=O)[C@H](CCC(=O)O)NC(=O)CC(C)C)[C@@H](C)O)C(c1ccccc1)c1ccccc1)C(=O)NCCc1ccncc1 [compound 72] | – | – | 0.1 to 10 | 7.52 to 9.00
CCCCCCCCCCCCCCCC(=O)NCC[N+](C)(C)CC(=O)NCCOCCOCC(=O)NCCOCCOCC(=O)NCCCC[C@H](NC(=O)[C@@H]1CCCN1C(=O)[C@@H](NC(=O)[C@H](Cc1c[nH]cn1)NC(=O)[C@@H](NC(=O)[C@H](CCC(=O)O)NC(=O)CC(C)C)[C@@H](C)O)C(c1ccccc1)c1ccccc1)C(=O)NCCc1ccccn1 [compound 73] | – | – | 0.1 to 10 | 7.52 to 9.00
CCCCCCCCCCCCCCCC(=O)NCC[N+](C)(C)CC(=O)NCCOCCOCC(=O)NCCOCCOCC(=O)NCCCC[C@H](NC(=O)[C@@H]1CCCN1C(=O)[C@@H](NC(=O)[C@H](Cc1c[nH]cn1)NC(=O)[C@@H](NC(=O)[C@H](CCC(=O)O)NC(=O)CC(C)C)[C@@H](C)O)C(c1ccccc1)c1ccccc1)C(=O)NCc1cccnc1 [compound 75] | 8.00 to 10.00 | 7.52 to 9.00 | – | –
CC(C)CC(=O)N[C@H]1CCC(=O)NCCCC[C@H](C(N)=O)NC(=O)[C@H](C(c2ccccc2)c2ccccc2)NC(=O)[C@H](CCCCNC(=O)CCCc2ccc(I)cc2)N(C)C(=O)[C@H](C2CCCCC2)NC(=O)[C@@H]2CSSC[C@H](NC1=O)C(=O)N[C@@H](Cc1c[nH]cn1)C(=O)N[C@@H](C(c1ccccc1)c1ccccc1)C(=O)N2 [compound 76] | < 6.30 | 7.00 to 7.52 | – | –
CC(C)CC(=O)N[C@H]1CCC(=O)NCCCC[C@H](C(N)=O)NC(=O)[C@H](C(c2ccccc2)c2ccccc2)NC(=O)[C@H](CCCCNC(=O)[C@H](CN)NC(=O)CCCc2ccc(I)cc2)N(C)C(=O)[C@H](C2CCCCC2)NC(=O)[C@@H]2CSSC[C@H](NC1=O)C(=O)N[C@@H](Cc1c[nH]cn1)C(=O)N[C@@H](C(c1ccccc1)c1ccccc1)C(=O)N2 [compound 77] | 6.30 to 7.00 | 6.30 to 7.00 | – | –
CC(C)CC(=O)N[C@H]1CCC(=O)NCCCC[C@H](C(N)=O)NC(=O)[C@H](C(c2ccccc2)c2ccccc2)NC(=O)[C@H](CCCCNC(=O)CCCc2ccc(I)cc2)N(C)C(=O)[C@H](C2CCCCC2)NC(=O)[C@@H]2CCCN2C(=O)[C@H](C(c2ccccc2)c2ccccc2)NC(=O)[C@H](Cc2c[nH]cn2)NC(=O)[C@H]([C@@H](C)O)NC1=O [compound 78] | 6.30 to 7.00 | 7.52 to 9.00 | – | –
CC(C)CC(=O)N[C@@H](CCC(=O)O)C(=O)N[C@H](C(=O)N[C@@H](Cc1c[nH]cn1)C(=O)N[C@H](C(=O)N1CCC[C@H]1C(=O)N[C@H](C(=O)N(C)[C@@H](CCCCNC(=O)CCCc1ccc(I)cc1)C(=O)N[C@H](C(=O)N[C@H](CCCCN)C(N)=O)C(c1ccccc1)c1ccccc1)C1CCCCC1)C(c1ccccc1)c1ccccc1)[C@@H](C)O [compound 79] | 7.00 to 8.00 | 7.52 to 9.00 | – | –
